Measurements published in ChEMBL document CHEMBL1124775 (J Med Chem, 1990).

Tests used:
[1] = Ratio of activity localized in the striatum (percent injected dose/gram) to that localized in the cerebellum (percent injected dose/gram) at 60 min
Rattus norvegicus [2] = test: In vivo binding specificity the compound in rat cerebellum at 30 min of intravenous injection.
Rattus norvegicus [3] = test: Evaluation of the biodistribution ofcompound in brain of female Sprague-Dawley rats at 5 min of intravenous injection.; conditions: in vivo
Rattus norvegicus [4] = test: Evaluation of the biodistribution ofcompound in frontal cortex of female Sprague-Dawley rats at 5 min of intravenous injection with naloxone; conditions: in vivo
Rattus norvegicus [5] = test: Evaluation of the biodistribution ofcompound in kidney of female Sprague-Dawley rats at 5 min of intravenous injection.; conditions: in vivo
Rattus norvegicus [6] = test: Evaluation of the biodistribution ofcompound in cerebellum of female Sprague-Dawley rats at 5 min of intravenous injection.; conditions: in vivo
[7] = Ratio of activity localized in the striatum (percent injected dose/gram) to that localized in the cerebellum (percent injected dose/gram) at 30 min
Rattus norvegicus [8] = test: Evaluation of the biodistribution ofcompound in striatum of female Sprague-Dawley rats at 30 min of intravenous injection with naloxone; conditions: in vivo, 0.5 h
Rattus norvegicus [9] = test: Evaluation of the biodistribution ofcompound in cerebellum of female Sprague-Dawley rats at 30 min of intravenous injection with naloxone; conditions: in vivo, 0.5 h
Rattus norvegicus [10] = test: Evaluation of the biodistribution ofcompound in cerebellum of female Sprague-Dawley rats at 5 min of intravenous injection with naloxone; conditions: in vivo
Rattus norvegicus [11] = test: In vivo binding specificity the compound in rat cerebellum at 60 min of intravenous injection.
[12] = Ratio of activity localized in the cortex (percent injected dose/gram) to that localized in the cerebellum (percent injected dose/gram) at 60 min
Rattus norvegicus [13] = test: Evaluation of the biodistribution ofcompound in brain of female Sprague-Dawley rats at 30 min of intravenous injection with naloxone; conditions: in vivo, 0.5 h
Rattus norvegicus [14] = test: Evaluation of the biodistribution ofcompound in frontal cortex of female Sprague-Dawley rats at 5 min of intravenous injection.; conditions: in vivo
Rattus norvegicus [15] = test: Evaluation of the biodistribution ofcompound in liver of female Sprague-Dawley rats at 5 min of intravenous injection.; conditions: in vivo
Rattus norvegicus [16] = test: Evaluation of the biodistribution ofcompound in muscle of female Sprague-Dawley rats at 60 min of intravenous injection.; conditions: in vivo, 1 h, Muscle tissue
Rattus norvegicus [17] = test: Evaluation of the biodistribution ofcompound in striatum of female Sprague-Dawley rats at 5 min of intravenous injection with naloxone; conditions: in vivo
Rattus norvegicus [18] = test: Evaluation of the biodistribution ofcompound in brain of female Sprague-Dawley rats at 5 min of intravenous injection with naloxone; conditions: in vivo
[19] = Specificity of binding in vivo was measured as the ratio of activity localized in the striatum (percent injected dose/gram) to that localized in the cerebellum (percent injected dose/gram) at 30 min
Rattus norvegicus [20] = test: Evaluation of the biodistribution ofcompound in kidney of female Sprague-Dawley rats at 60 min of intravenous injection.; conditions: in vivo, 1 h
Rattus norvegicus [21] = test: Evaluation of the biodistribution ofcompound in blood of female Sprague-Dawley rats at 60 min of intravenous injection.; conditions: in vivo, 1 h
Rattus norvegicus [22] = species on record: Rattus norvegicus; test: Ratio of activity localized in the cortex (percent injected dose/gram) to that localized in the cerebellum (percent injected dose/gram) at 30 min with naloxone
Rattus norvegicus [23] = test: Evaluation of the biodistribution ofcompound in liver of female Sprague-Dawley rats at 30 min of intravenous injection with naloxone; conditions: in vivo, 0.5 h
Rattus norvegicus [24] = test: Evaluation of the biodistribution ofcompound in frontal cortex of female Sprague-Dawley rats at 60 min of intravenous injection.; conditions: in vivo, 1 h
Rattus norvegicus [25] = test: Evaluation of the biodistribution ofcompound in kidney of female Sprague-Dawley rats at 5 min of intravenous injection with naloxone; conditions: in vivo

CO[C@]12CC[C@@]3(C[C@@H]1C(C)(C)O)[C@H]1Cc4ccc(O)c5c4[C@@]3(CCN1CCC[18F])[C@H]2O5
Ratio [1]: 2.95% | ID (per g of tissue) (Rattus norvegicus [2]): 0.1% | ID (per g of organ) (Rattus norvegicus [3]): 1.83% | ID (per g of tissue) (Rattus norvegicus [4]): 0.46% | ID (per g of organ) (Rattus norvegicus [5]): 1.16% | ID (per g of tissue) (Rattus norvegicus [6]): 0.68% | Ratio [7]: 3.37% | ID (per g of tissue) (Rattus norvegicus [8]): 0.097% | ID (per g of tissue) (Rattus norvegicus [9]): 0.086% | ID (per g of tissue) (Rattus norvegicus [10]): 0.45% | ID (per g of tissue) (Rattus norvegicus [11]): 0.033% | Ratio [12]: 2.37% | ID (per g of organ) (Rattus norvegicus [13]): 0.1% | ID (per g of tissue) (Rattus norvegicus [14]): 1.36% | ID (per g of organ) (Rattus norvegicus [15]): 7.84% | ID (per g of organ) (Rattus norvegicus [16]): 0.84% | ID (per g of tissue) (Rattus norvegicus [17]): 0.54% | ID (per g of organ) (Rattus norvegicus [18]): 0.8% | Ratio [19]: 3.32% | ID (per g of organ) (Rattus norvegicus [20]): 0.06% | ID (per g of organ) (Rattus norvegicus [21]): 0.71% | Ratio (Rattus norvegicus [22]): 0.92% | ID (per g of organ) (Rattus norvegicus [23]): 2.1% | ID (per g of tissue) (Rattus norvegicus [24]): 0.075% | ID (per g of organ) (Rattus norvegicus [25]): 0.81%
